Experimental data published in patent US10703755B2, “Substituted purine derivative” (SUMITOMO DAINIPPON PHARMA CO., LTD., priority 2016, dated 2020).

Sequences of proteins named here, by UniProt entry; tags and fusion partners are left off. Residues count along the entry.
UniProt Q9NYK1, 27-1049 limits assumed: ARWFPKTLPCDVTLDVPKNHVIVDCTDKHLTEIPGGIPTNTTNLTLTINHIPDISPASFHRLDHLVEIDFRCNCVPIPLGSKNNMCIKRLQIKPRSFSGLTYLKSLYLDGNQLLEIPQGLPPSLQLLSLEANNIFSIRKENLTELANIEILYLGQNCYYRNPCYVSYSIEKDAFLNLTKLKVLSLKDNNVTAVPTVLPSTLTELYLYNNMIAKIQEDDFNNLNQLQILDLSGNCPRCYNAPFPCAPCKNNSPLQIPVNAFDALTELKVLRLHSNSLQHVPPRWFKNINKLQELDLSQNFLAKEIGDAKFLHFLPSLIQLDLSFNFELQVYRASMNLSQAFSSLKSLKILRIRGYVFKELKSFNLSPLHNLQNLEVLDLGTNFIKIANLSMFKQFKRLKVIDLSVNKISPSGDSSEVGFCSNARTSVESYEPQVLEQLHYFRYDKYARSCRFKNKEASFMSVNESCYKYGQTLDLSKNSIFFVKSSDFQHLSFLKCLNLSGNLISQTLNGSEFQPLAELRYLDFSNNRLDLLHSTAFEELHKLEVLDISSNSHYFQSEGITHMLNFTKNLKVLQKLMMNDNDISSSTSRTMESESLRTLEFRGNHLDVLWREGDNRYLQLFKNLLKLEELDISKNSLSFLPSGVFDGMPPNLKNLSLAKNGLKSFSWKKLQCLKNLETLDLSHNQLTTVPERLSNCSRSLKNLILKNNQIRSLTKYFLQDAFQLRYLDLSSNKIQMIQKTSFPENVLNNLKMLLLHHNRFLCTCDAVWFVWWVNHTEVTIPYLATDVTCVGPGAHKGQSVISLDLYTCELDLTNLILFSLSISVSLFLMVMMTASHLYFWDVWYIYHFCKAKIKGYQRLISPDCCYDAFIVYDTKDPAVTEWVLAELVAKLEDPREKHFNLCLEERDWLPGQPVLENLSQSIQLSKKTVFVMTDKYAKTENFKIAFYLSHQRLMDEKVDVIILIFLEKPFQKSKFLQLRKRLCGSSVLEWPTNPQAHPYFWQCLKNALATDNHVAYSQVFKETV

Target: human TLR7 (Homo sapiens (Human), UniProt Q9NYK1)
Assay: Test for evaluating the inhibition of the activation of human TLR7 (SEAP reporter, TLR7/NF-κB/SEAPorter HEK293 cell)
Format: cell-based
Conditions: for IC50: read-out: TLR7 IC50, R-848 200 nmol/L, SEAP reporter

Row | SMILES | IC50 | inhibitory effect against TLR7 in the test for evaluating inhibition of the activation of TLR7 (R-848 200 nmol/L, SEAP activity, result in words)
1 | COCCOc1nc(C)c2nc(-c3cncc(F)c3)n(Cc3ccc(CN(C)C)cc3)c2n1 | 1000 nM | –
2 | CCOc1nc(C)c2nc(-c3cncc(F)c3)n(Cc3cnn(CCCN4CCN(C)CC4)c3)c2n1 | 28 nM | potent inhibitory effect against TLR7
3 | CCCCOc1nc(N)c2nc(-c3cncc(F)c3)n(Cc3cccc(CN(C)C)c3)c2n1 | 500 nM | –
4 | CCOc1nc(C)c2nc(-c3cncc(F)c3)n(Cc3ccc(OC4CN(C)C4)nc3)c2n1 | 1400 nM | –
5 | CCOc1nc(C)c2nc(-c3cncc(F)c3)n(Cc3ccc(CN(C)C)cc3)c2n1 | 160 nM | –
